What was measured:
[1] = Stability at the working pH of 10; settings: pH 10
alkaline phosphatase [2] = assay: Kinetics of alkaline phosphatase inhibition by pesticides, CSPD chemiluminescence (Lineweaver-Burk); settings: for Ki / α (interaction parameter, measure of inactivation of the enzyme in the presence of the inhibitor): CSPD 0.05 to 0.3 mM, enzyme 125 pM; for Ki: 0.1M DEA pH 10, from slopes and intercepts of Lineweaver-Burk plots; for α (interaction parameter, measure of inactivation of the enzyme in the presence of the inhibitor): pH 10
alkaline phosphatase [3] = assay: Detection and quantification of pesticides by inhibition of alkaline phosphatase chemiluminescence signal in solution; settings: 364 μM (100 ppm) paraoxon, 1.82 μM CSPD

SMILES	stability at the working pH [1]	Ki (alkaline phosphatase [2]) [µM]	α (interaction parameter, measure of inactivation of the enzyme in the presence of the inhibitor) (alkaline phosphatase [2])	inhibition of enzyme activity (alkaline phosphatase [3])	type of inhibition (Lineweaver-Burk plot) (alkaline phosphatase [2]; lines do not intersect on either axis, mixed type of inhibition)
CCOC(=O)CC(SP(=S)(OC)OC)C(=O)OCC (stereo not shown)	not particularly stable	–	–	–	–
COP(=S)(OC)Oc1ccc([N+](=O)[O-])cc1	–	60	0.380	–	–
CCOP(=O)(OCC)Oc1ccc([N+](=O)[O-])cc1	–	1700	0.334	completely inhibit	mixed type of inhibition

Source: patent publication US5846753A, “Chemiluminescence-based method for rapid and sensitive in-situ detection of organophosphorus compounds and metal ions” (dated 1998)
